Each structure is given as a SMILES string.

The chains behind the UniProt entries cited, without tags or fusion partners. Where a name states a change or a piece, a line headed by the entry shows the natural chain unless it says otherwise.
UniProt Q9NQV7: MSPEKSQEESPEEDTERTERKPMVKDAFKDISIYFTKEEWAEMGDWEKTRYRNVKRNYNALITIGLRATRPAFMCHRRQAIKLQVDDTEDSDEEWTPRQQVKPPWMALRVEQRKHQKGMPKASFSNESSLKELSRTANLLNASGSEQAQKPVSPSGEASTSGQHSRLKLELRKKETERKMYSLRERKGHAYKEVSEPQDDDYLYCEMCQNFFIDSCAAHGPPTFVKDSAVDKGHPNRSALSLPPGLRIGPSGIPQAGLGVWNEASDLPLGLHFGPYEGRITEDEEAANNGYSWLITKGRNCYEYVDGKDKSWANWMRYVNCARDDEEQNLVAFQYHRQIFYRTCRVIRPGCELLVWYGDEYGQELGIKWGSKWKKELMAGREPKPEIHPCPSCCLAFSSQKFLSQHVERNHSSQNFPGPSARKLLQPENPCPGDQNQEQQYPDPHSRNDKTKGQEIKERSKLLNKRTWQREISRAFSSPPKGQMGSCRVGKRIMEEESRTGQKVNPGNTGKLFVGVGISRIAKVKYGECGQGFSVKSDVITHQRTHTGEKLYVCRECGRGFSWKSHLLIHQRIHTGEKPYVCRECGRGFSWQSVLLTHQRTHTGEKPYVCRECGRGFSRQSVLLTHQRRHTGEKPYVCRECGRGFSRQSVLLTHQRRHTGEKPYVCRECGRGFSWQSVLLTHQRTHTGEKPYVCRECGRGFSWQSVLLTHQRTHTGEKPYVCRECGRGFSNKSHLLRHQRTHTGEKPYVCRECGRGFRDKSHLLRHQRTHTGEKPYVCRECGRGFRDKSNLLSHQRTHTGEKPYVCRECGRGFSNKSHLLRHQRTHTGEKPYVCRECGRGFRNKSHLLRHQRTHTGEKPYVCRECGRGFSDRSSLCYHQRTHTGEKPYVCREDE
UniProt Q9H9B1: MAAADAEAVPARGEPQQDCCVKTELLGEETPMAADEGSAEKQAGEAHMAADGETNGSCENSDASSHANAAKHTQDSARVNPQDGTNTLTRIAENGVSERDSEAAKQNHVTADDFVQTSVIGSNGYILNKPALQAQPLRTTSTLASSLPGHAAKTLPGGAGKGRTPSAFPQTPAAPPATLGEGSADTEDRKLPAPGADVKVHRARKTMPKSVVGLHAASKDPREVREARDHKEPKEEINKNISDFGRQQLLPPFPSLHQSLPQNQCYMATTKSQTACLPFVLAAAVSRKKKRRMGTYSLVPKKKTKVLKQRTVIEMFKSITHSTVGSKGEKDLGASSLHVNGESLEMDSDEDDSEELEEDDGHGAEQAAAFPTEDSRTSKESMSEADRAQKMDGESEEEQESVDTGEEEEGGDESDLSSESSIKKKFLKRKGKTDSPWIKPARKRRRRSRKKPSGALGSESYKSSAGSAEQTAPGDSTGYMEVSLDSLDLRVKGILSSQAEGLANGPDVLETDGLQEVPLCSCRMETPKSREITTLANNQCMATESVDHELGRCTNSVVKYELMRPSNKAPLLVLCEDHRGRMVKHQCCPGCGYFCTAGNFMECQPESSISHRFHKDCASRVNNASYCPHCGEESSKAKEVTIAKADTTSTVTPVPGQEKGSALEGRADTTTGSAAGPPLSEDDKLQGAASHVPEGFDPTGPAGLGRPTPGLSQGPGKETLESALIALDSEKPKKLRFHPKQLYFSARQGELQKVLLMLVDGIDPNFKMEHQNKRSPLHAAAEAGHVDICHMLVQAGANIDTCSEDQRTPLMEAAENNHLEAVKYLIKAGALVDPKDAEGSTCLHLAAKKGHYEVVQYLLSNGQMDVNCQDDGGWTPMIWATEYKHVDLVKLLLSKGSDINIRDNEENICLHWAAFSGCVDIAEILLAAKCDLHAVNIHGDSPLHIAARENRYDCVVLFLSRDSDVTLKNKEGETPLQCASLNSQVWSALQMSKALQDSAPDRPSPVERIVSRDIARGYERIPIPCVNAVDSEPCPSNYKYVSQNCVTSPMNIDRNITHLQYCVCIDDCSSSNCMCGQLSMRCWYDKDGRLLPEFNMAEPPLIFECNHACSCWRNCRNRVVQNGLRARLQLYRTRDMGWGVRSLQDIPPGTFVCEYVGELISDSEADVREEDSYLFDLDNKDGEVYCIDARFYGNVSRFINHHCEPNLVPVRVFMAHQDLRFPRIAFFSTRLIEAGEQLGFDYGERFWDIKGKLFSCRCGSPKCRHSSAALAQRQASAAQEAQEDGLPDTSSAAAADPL
UniProt Q15910, whole entry: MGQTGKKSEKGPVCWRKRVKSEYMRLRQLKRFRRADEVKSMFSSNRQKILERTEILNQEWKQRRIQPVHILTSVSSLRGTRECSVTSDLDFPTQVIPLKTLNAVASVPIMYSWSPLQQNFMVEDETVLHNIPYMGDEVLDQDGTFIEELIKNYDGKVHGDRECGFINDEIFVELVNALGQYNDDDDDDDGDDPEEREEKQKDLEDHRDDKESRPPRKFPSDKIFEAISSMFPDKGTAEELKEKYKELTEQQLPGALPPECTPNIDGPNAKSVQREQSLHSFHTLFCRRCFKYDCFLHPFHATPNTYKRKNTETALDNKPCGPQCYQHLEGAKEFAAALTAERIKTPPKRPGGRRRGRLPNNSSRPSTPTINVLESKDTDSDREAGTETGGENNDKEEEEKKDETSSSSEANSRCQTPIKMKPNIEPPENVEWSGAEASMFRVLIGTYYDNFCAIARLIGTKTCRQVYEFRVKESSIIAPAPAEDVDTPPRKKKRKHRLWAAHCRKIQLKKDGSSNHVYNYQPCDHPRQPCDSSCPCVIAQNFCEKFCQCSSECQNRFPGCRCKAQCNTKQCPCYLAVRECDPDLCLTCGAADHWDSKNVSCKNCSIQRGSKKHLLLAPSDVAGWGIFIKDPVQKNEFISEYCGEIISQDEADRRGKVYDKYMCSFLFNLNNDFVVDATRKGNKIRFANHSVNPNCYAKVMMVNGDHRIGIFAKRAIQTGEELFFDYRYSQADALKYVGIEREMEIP
UniProt Q8WTS6: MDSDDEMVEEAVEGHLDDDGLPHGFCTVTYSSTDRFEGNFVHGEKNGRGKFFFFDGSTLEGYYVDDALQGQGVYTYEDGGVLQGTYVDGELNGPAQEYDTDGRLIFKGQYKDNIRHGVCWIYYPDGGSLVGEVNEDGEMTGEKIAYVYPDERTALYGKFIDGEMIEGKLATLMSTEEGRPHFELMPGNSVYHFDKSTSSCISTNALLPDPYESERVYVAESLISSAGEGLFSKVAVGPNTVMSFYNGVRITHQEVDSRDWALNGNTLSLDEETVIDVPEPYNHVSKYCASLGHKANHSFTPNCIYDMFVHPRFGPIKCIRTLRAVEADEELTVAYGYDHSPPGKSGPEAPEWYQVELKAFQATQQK
UniProt Q8TEK3: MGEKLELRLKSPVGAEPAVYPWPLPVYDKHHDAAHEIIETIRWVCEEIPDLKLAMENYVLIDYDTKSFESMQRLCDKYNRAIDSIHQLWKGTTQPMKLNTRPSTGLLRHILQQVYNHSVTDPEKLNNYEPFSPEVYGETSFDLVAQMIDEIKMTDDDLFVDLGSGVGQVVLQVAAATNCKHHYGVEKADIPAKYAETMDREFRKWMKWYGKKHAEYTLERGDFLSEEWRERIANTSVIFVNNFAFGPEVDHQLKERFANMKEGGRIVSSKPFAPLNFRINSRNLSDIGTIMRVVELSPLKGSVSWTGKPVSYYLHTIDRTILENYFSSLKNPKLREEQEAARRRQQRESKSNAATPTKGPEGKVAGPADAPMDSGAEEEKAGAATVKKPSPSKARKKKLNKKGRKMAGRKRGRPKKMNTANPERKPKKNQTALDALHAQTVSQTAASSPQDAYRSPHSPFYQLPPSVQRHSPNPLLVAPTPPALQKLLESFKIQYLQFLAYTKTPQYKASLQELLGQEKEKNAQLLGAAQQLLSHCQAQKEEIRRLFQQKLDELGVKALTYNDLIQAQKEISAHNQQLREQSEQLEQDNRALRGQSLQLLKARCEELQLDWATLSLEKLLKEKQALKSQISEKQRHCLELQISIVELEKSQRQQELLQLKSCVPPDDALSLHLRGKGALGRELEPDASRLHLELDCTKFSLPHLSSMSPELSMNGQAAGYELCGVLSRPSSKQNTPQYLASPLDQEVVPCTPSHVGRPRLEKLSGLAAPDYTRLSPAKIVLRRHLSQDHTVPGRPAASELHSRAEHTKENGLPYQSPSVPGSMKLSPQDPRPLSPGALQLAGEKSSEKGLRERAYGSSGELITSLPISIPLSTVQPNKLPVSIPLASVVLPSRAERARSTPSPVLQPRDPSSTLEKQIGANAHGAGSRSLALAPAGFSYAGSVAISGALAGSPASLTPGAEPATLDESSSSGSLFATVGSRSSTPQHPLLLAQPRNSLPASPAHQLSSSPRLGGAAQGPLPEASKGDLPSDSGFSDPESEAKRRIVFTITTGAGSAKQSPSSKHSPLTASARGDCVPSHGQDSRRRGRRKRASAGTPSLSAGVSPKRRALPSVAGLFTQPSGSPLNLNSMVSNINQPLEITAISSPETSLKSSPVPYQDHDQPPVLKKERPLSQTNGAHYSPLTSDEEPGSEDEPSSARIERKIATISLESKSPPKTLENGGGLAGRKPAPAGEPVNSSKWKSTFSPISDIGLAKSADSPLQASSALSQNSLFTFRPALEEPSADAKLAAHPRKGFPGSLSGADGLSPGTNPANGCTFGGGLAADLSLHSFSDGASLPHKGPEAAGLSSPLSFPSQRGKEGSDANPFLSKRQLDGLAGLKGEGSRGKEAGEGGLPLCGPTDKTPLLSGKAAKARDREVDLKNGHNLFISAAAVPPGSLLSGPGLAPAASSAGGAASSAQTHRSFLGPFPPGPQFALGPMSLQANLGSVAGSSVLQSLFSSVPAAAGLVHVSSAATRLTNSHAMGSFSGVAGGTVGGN
UniProt Q9NQR1: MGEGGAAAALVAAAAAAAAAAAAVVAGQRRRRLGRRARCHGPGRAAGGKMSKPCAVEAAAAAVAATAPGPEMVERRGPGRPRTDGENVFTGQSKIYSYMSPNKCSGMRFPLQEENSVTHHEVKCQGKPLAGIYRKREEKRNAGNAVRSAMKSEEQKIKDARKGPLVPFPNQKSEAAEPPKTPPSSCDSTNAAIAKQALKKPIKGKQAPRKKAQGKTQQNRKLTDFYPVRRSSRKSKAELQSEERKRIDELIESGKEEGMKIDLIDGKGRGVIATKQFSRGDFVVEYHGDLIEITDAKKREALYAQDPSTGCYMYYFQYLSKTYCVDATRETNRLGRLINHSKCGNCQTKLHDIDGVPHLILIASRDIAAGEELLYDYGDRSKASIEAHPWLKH
UniProt Q96KQ7: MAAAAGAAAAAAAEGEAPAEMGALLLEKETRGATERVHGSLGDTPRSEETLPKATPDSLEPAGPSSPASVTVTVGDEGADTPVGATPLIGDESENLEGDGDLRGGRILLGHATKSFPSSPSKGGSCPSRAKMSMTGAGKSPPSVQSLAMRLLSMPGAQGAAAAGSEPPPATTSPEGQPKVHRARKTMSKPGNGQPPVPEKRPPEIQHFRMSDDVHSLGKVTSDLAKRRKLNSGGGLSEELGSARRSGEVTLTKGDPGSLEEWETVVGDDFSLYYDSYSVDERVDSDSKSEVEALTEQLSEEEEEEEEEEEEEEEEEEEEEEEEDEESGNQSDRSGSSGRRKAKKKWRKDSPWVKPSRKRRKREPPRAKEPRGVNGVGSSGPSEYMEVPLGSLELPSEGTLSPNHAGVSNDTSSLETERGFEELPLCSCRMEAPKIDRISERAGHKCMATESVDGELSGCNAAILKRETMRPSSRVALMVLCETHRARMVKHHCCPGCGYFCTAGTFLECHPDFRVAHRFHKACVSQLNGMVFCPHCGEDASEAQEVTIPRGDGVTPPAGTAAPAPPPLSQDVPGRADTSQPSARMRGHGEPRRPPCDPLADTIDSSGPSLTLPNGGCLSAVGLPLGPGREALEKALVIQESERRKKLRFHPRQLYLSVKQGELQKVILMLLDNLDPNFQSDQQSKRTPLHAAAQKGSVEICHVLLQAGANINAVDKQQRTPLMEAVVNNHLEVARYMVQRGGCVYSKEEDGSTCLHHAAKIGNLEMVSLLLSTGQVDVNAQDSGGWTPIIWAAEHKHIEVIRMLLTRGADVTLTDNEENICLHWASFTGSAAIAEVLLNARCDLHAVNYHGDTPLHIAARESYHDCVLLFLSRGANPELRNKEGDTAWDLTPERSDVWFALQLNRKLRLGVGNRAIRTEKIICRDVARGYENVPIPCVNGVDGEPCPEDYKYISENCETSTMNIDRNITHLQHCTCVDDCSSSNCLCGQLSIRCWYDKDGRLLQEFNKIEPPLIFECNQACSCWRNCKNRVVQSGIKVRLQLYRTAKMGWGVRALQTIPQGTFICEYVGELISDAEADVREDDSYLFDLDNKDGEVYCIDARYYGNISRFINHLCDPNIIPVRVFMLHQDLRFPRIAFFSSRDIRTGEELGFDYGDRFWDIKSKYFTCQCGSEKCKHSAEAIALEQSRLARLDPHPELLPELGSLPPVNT

The term inhibition denotes the percentage by which the read-out fell short of the control.

For one experiment, the target named is SET1B Complex (Homo sapiens, UniProt Q9UPS6). Briefly: biochemical. Conditions: read-out: Average % Inhibition.
The target of a further experiment is SMYD2 (Homo sapiens, UniProt Q9NRG4). The experiment in a line: biochemical. The conditions noted are these: read-out: Average % Inhibition.
For a further experiment, the target named is MLL3 Complex (Homo sapiens, UniProt Q8NEZ4). The experiment in a line: biochemical. The conditions noted are these: read-out: Average % Inhibition.
For experiment [1], the target named is T1, PRDM9 (Homo sapiens, UniProt Q9NQV7). The experiment in a line: biochemical. Conditions: read-out: Average % Inhibition, 10 μM; SAM 1 μM; Histone H3.
Another experiment addresses GLP (Homo sapiens, UniProt Q9H9B1). The experiment in a line: biochemical. Conditions: read-out: Average % Inhibition.
In the next experiment the target is SETD2 (Homo sapiens, UniProt Q9BYW2). Briefly: biochemical. Conditions: read-out: Average % Inhibition.
For another experiment, the target named is NSD2 (Homo sapiens, UniProt O96028). The experiment in a line: biochemical. The conditions noted are these: read-out: Average % Inhibition.
The target of another experiment is EZH2 Complex (Homo sapiens, UniProt Q15910). The experiment in a line: biochemical. The conditions noted are these: read-out: Average % Inhibition.
The target in the next experiment is SET7 (Homo sapiens, UniProt Q8WTS6). Briefly: biochemical. The conditions noted are these: read-out: Average % Inhibition.
The target of another experiment is EZH1 Complex (Homo sapiens, UniProt Q92800). The experiment in a line: biochemical. Conditions: read-out: Average % Inhibition.
The target in another experiment is SUV39H1 (Homo sapiens, UniProt O43463). The experiment in a line: biochemical. The conditions noted are these: read-out: Average % Inhibition.
The target in experiment [2] is T1, PRDM9. Conditions: 10 μM; SAM 1 μM; Histone H3.
Another experiment has as its target MLL1 Complex (Homo sapiens, UniProt Q03164). Briefly: biochemical. The conditions noted are these: read-out: Average % Inhibition.
Another experiment concerns the target Dot1L (Homo sapiens, UniProt Q8TEK3). The experiment in a line: biochemical. Conditions: read-out: Average % Inhibition.
The target in a further experiment is SET8 (Homo sapiens, UniProt Q9NQR1). Briefly: biochemical. The conditions noted are these: read-out: Average % Inhibition.
The target of a further experiment is SUV39H2 (Homo sapiens, UniProt Q9H5I1). Briefly: biochemical. The conditions noted are these: read-out: Average % Inhibition.
Another experiment concerns the target G9a (Homo sapiens, UniProt Q96KQ7). The experiment in a line: biochemical. The conditions noted are these: read-out: Average % Inhibition.

For `CCOCC1(COCC)CCC(c2n[nH]cc2CN(C)CCNC)CC1` [Compound A], the inhibition at 10 µM at SET1B Complex was 5.96%; on SMYD2, 9.26%; at MLL3 Complex it was 13.7%; at PRDM9 [1], 18%; at GLP it was 1.86%; on SETD2 it was 3.15%. Besides, the inhibition at 10 µM at NSD2 worked out at 15%; at EZH2 Complex, 8.17%; on SET7, 3.47%; on EZH1 Complex it was 12%; on SUV39H1, 0%; at MLL1 Complex, 0.27%. In addition, the inhibition at 10 µM on Dot1L was determined as 2.75%; at SET8 it was 0%; on SUV39H2, 0%; at G9a it was 3.72%. Besides, the “Average % Inhibition” value on PRDM9 [2] was 17.99%.

Source of the values: patent US11197857B2, “Combination therapy” (GlaxoSmithKline Intellectual Property Development Limited, priority 2016, dated 2021).
